Some of the results follow. Inconclusive results are not listed. The source made the active and inactive calls. Rule for the calls: active = hit-call score of the fitted dose curve at least 0.9, where 1 is the maximum; inactive = score below 0.9.
Experiment: ATG_M_61_TRANS: Attagene TRANS-FACTORIAL HepG2 Assay for M61 Transcription Factor (Internal Marker) (AID 2282988)
Conditions: HepG2 Attagene TRANS M61 internal marker reporter
Description: ATG_TRANS is a cell-based, multiplexed-readout assay that uses HepG2, a human liver cell line, with measurements taken at 24 hours after chemical dosing in a 24-well plate.ATG_M_61_TRANS is one of 30 assay component(s) measured or calculated from the ATG_TRANS assay. It is designed to make measurements of mRNA induction, a form of inducible reporter, as detected with fluorescence intensity signals by Reverse transcription polymerase chain reaction (RT-PCR) and Capillary electrophoresis technology.Data from the assay component ATG_M_61_TRANS was analyzed into 1 assay endpoint. This assay endpoint, ATG_M_61_TRANS, was analyzed in the positive analysis fitting direction relative to DMSO as the negative control and baseline of activity. Using a type of inducible reporter, measures of mRNA for gain-of-signal activity can be used to understand the background control at the transcription factor-level as they relate to the gene . Furthermore, this assay endpoint can be referred to as a secondary readout, because this assay has produced multiple assay endpoints where this one serves a background control function. To generalize the intended target to other relatable targets, this assay endpoint is annotated to the background measurement intended target family, where the subfamily is internal marker.
Human liver HepG2 cells are transiently transfected with multiple reporter transcription units (MRTUs) in 6-well plates using FuGene 6 reagent (Roche; 3 ml FuGene/1 mg DNA). The MRTU constructs are regulated by a cis-regulating element (promoter). […] A major difference between the CIS and TRANS system is that in CIS activities of endogenous TFs are measured, whereas the TRANS assay evaluates changes in activities of exogenous, chimeric NR-Gal4 proteins. […] At the end of 24 hour incubation, total RNA was isolated using TriZol reagent (Invitrogen). The isolated RNA is then reverse-transcribed using oligo(dT) primer and Mo-MLV reverse transcriptase (Invitrogen) with DNAse I (Ambion) treatment for 30 min. The one-tenth of the produced cDNA was amplified by PCR using Taq DNA polymerase (Invitrogen) and two reporter sequence-specific primers. The PCR products were fluorescently labeled by primer extension with 6-arboxyfluorescein (6-FAM) 5'-labeled reporter sequence-specific primer (2 min at 95 C, 20 s at 68 C and 10 min at 72 C) and these products were digested with 5U of HpaI (New England Biolabs) for 2h at 37 C. The fragments were purified using Qiaquick PCR columns (Qiagen), analyzed on an ABI 3130xL genetic analyzer (Applied Biosystems) with peak positions identified by using a set of X-rhodamine (ROX)-labeled MapMarker1000 molecular weight standards (BioVentures). The raw capillary electrophoresis data was processed using Attagraph software (Attagene).
In the case of `O=[P+](Oc1ccccc1)Oc1ccccc1`, the outcome is reported as “inactive”. For `ClP(Cl)c1ccccc1`, the outcome was “inactive”. In the case of `CN(C(=O)Cc1cccc2occc12)[C@H]1CC[C@@]2(CCCO2)C[C@@H]1N1CCCC1`, the outcome is reported as “inactive”. With `CC(C)CCCCCCCOP(OCCCCCCCC(C)C)Oc1ccccc1` the outcome was “inactive”. In the case of `O=[N+]([O-])c1ccc([N+](=O)[O-])cc1`, the outcome is reported as “inactive”. With `O=C(Cl)Oc1ccccc1` the outcome was “inactive”. For `CCCCC(CC)CO[P+](=O)OCC(CC)CCCC` (stereo unspecified), the outcome was “inactive”. For `O=C1C2CC=CCC2C(=O)N1SC(Cl)(Cl)C(Cl)Cl` (stereo unspecified), the outcome was “inactive”. For `CCCCO[P+](=O)OCCCC`, the outcome was “inactive”. With `O=C(Cl)OCCOC(=O)Cl` the outcome was “inactive”. In the case of `O=[As]c1ccccc1` (stereo unspecified), the outcome is reported as “inactive”.

— PubChem BioAssay (EPA / NIEHS)
